Tested on: leucocytes (white blood cells)
Test: Fate in dog blood (confocal scanning microscope, flow cytometry)
Conditions: injected into beagle dogs

For “Air-exposed-Tetronic-908-conjugated-to-fluorescein Isothiocyanate”, the “effect on leucocyte function” value was “without impacting their function”.
